SMILES strings stand for the structures.

Experiment [1] has as its target proteasomal activity in HeLa-cells (Homo sapiens, UniProt P20618+P28074). As to the kind of experiment: Intracellular inhibition of proteasomes in cultivated HeLa-cells. The note with it: 1 μM.
Experiment [2] deals with 20S proteasome β5 chymotrypsin-like activity (Suc-LLVY-AMC) (Homo sapiens, UniProt P20618+P28074). The experiment is described as follows: Protease assay, chymotrypsin-like activity of isolated 20S proteasomes (LLVY substrate). The experiment is classed as biochemical. Conditions: read-out: IC50 β5 Chymotrypsin-like (Y); isolated 20S proteasome; LLVY-MCA 50 μM; 15 min pre-incubation.

The target of experiment [3] is 20S proteasome β1 caspase-like activity (LLE-MCA) (Homo sapiens, UniProt P28072+Q99436). As to the kind of experiment: Protease assay, caspase-like activity of isolated 20S proteasomes. Conditions: read-out: IC50 β1 Caspase-like (E); isolated 20S proteasome; LLE-MCA 50 μM; 15 min pre-incubation.

As a reminder, the IC50 is the concentration needed to halve the response being measured. With `CC(C)C[C@@H](CO)NC(=O)[C@H](CC(=O)OC(C)(C)C)NC(=O)[C@H](CC(C)C)NC(=O)OC(C)(C)C`, the “reduction of the specific proteasomal activity in cells” value in experiment [1] was “markedly reduction”. Besides, the half-maximal inhibitory concentration (IC50) in experiment [2] and in experiment [3] was above 10 µM each time.

The values are drawn from patent US8835392B2, “Mimetic peptides and the use thereof in the form of 20S, 26S and immunoproteasome inhibitors” (Technische Universität, priority 2005, dated 2014).
